Measurements: publication PMC2690590 (Immunome Research, 2009)

B1: Hepatitis B peptide YLCQVFADATPTGWGL (peptide)
peptide: YLCQVFADATPTGWGL
B2: DQA1*0501/DQB1*0201 (complex)
chain 1: EDIVADHVASYGVNLYQSYGPSGQYTHEFDGDEQFYVDLGRKETVWSLPVLRQFRFDPQFALTNIAVLKHNLNSLIKRSNSTAATNEVPEVTVFSKSPVTLGQPNILICLVDNIFPPVVNITWLSNGHSVTEGVSETSFLSKSDHSFFKISYLTLLPSAEESYDCKVEHWGLDKPLLKHWEPEIPAPMSELTE
chain 2: RDSPEDFVYQFKGMCYFTNGTERVRLVSRSIYNREEIVRFDSDVGEFRAVTLLGLPAAEYWNSQKDILERKRAAVDRVCRHNYQLELRTTLQRRVEPTVTISPSRTEALNHHNLLVCSVTDFYPAQIKVRWFRNDQEETAGVVSTPLIRNGDWTFQILVMLEMTPQRGDVYTCHVEHPSLQSPITVEWRAQSESAQSK
modifications: biotin on the BSP (in vivo, BirA)

Tests used:
Conditions in all cases: both partners purified
DQA1*0501/DQB1*0201 = target: B2; assay: AlphaScreen or HTRF
[1] = target: Peptide … (no natural source); assay: AlphaScreen or HTRF; direct LOCI: α and biotinylated β chains refolded with peptide titration, 48 h at 18°C; streptavidin donor beads and anti-MHC-II antibody acceptor beads; half saturation (EC50) fitted to Y = Bmax*X/(KD+X) and taken as approximate KD; pH as optimised for each MHC (DR2a at pH 6)
[2] = target: Oxytocinase271 peptide …; assay: as above
[3] = target: Peptide … (no natural source); assay: AlphaScreen or HTRF

Binder	Kd (DQA1*0501/DQB1*0201)	Kd [1]	Kd [2]	Kd [3]
B1	1340 nM	–	–	–
B2	–	648 nM	1090 nM	1540 nM
